Source: PubChem (National Center for Advancing Translational Sciences (NCATS))
This is a sample that favours compounds with a hit; in the whole collection about 3.7% have one here.
Nrf2 inh = Nrf2 pathway inhibition | A549 ARE-Fluc reporter, luciferase luminescence, 18-24 h | Potency, µM (series often up to 46 µM), most hits filed as inhibitors | hit rate 2.1% among 360,000; also: nearly all actives have a fitted effect of over 60% in size
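A549 ARE_Fluc cells (5000/well, 5% FBS OPTI-MEM) pre-incubated 2 h, then treated with compounds 18-24 h at 37C/5% CO2 in concentration-response. CellTiter-Fluor viability read first; BugLite luciferase luminescence after 15 min at room temperature gives Nrf2 activity.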
p53 reactivator = re-activators of mutant p53; H1299 p53-A138V BP100-luciferase reporter, luminescence, 24 h; Potency, µM (doses to about 92.2 µM), usual class: activators; hit rate 0.063% among 320,000; AID 504706; also: nearly all actives have a fitted effect of over 45% in size
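p53-null H1299 cells stably carrying temperature-sensitive p53-A138V and a BP100-luciferase reporter were pinned with compounds (4-point, 1:5 series) and held 24 hrs at 37 deg C. Luminescence was read 10 min after detection reagent.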
miR-21 reporter = raises the signal of a miR-21 reporter; HeLa miR-21 FLuc reporter, luciferase, 48 h; Potency, µM (top dose mostly 38.3 µM); AID 2288; 340,000 tested, under 10 active; active = well fitted rising curve with a large enough effect; inconclusive = small, poorly fitted or top-dose-only effect; inactive = no such curve, though single readings can be large or run the other way;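 note: miR-21 action dims this reporter so a rising signal means less miR-21 action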
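HeLa cells endogenously expressing miR-21, stably carrying CMV-driven firefly luciferase with a downstream miR-21 binding site, 2000 cells/well. Titrations up to approximately 40 uM, 48 hours; luciferase luminescence read.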
ClpP mod = qHTS Assay for Activators of ClpP. ATP-dependent Clp protease proteolytic subunit (Bacillus subtilis (strain 168)), P80244. purified B. subtilis ClpP, FRET peptide cleavage, 20 min. Potency, µM (series often up to 57.5 µM). hit rate 1.9% among 340,000. AID 651965, 2013; active = well fitted falling curve with a large enough effect; inconclusive = small, poorly fitted or top-dose-only effect; inactive = no such curve, though single readings can be large or run the other way; also: the source files actives as falling curves though it sought activators and does not explain the sign; nearly all actives have a fitted effect of over 65% in size
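ClpP 10 microg/mL final, pH 8 Tris/KCl buffer with BSA, glycerol, Tween-20; compound pinned in; FRET-FV substrate; RT 20 min; Ex320/Em430; ΔFRET vs ADEP 5.8 microM, DMSO, no enzyme.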
A549 tox = counter-screen for Nrf2 inhibitors: cytotoxicity in A549 cells; A549 ARE-Fluc cells, CellTiter-Fluor viability, 18-24 h; Potency, µM (top dose mostly 46 µM), actives largely listed as inhibitors; hit rate 0.16% among 390,000
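A549 ARE_Fluc cells in 5% FBS OPTI-MEM were exposed to compounds in concentration-response for 18-24 h at 37 deg C. Viability was read by CellTiter-Fluor fluorescence (Ex 405/Em 525) after 30 min, before the luciferase read.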
Nrf2 activator = Nrf2 pathway activation | AREc32 ARE-luciferase reporter (MCF7-derived line), luminescence, 24 h | Potency, µM (titrated, usually from 46.1 µM), hits mostly activators | hit rate 0.31% among 410,000; also: nearly all actives have a fitted effect of over 65% in size
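Reporter line AREc32 (ARE-Fluc), seeded overnight in OPTI-MEM with 5% FBS; compound pin-transferred, 24 hr at 37 deg C, 5% CO2; luminescent read-out.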
A number is an active result; 0 = inactive; ? = inconclusive; - = not tested or not shown; ! = not active in a repeat; [ ] = remark or other dose. Unless noted, calls follow the shape of the dose curve; as a rule, active = well fitted curve in the direction sought with a large enough effect; inconclusive = small, poorly fitted or top-dose-only effect, or another doubt; inactive = no such curve, though single readings can be large; an effect the other way counts as inactive or inconclusive.

SMILES | Nrf2 inh | p53 reactivator | miR-21 reporter | ClpP mod | A549 tox | Nrf2 activator
Cc1ccc(CNC(=O)c2cn(C)c(=O)c3c2c2ccccc2n3C)o1 | 0 | 0 | 0 | 14µM | 0 | 0
COc1ccccc1CNC(=O)c1nn(-c2ccc(C)cc2)c(=O)c2c1c1ccccc1n2C | ? | - | 0 | 14µM | 0 | 0
CCOC(CCNC(=O)c1cn(C)c(=O)c2c1c1ccccc1n2C)OCC | 0 | 0 | 0 | 0 | 0 | 0
CCOc1ccccc1CNC(=O)c1cn(C)c(=O)c2c1c1ccccc1n2C | 0 | 0 | 0 | 11µM | 0 | 0
CCc1ccc(CNC(=O)c2nn(-c3ccc(C)cc3)c(=O)c3c2c2ccccc2n3C)cc1 | 0 | - | 0 | 0 | 0 | 0
CCC(=O)C1=C(c2ccc(F)cc2)N(C(=O)CC)n2c(nnc2C2CCCCC2)S1 | - | - | 0 | 0 | 0 | 0
O=C(Cn1ncn2nc(-c3cccs3)cc2c1=O)NCc1ccccc1Cl | 0 | - | 0 | 0 | 0 | 0
O=C(O)CCn1cc(/C=C2/NC(=S)N(c3ccccc3)C2=O)c(-c2ccccc2)n1 | 0 | 0 | 0 | 13µM | 0 | 0
N#CCCn1cc(/C=C2\NC(=S)N(c3ccccc3)C2=O)c(-c2ccc(-c3ccccc3)cc2)n1 | 18µM | 0 | 0 | - | 21µM | 0
CC(=O)NC(CCS(C)(=O)=O)C(=O)Nc1ccccc1Cl (stereo not given) | - | 0 | 0 | 16µM | 0 | 0
COC(=O)c1ccccc1NC(=O)C(CCS(C)(=O)=O)NC(C)=O (stereo not given) | - | 0 | 0 | 28µM | 0 | 0
CC(=O)NC(CCS(C)(=O)=O)C(=O)Nc1cc(Cl)ccc1Cl (stereo not given) | 0 | 0 | 0 | 0 | 0 | 0
CCOC(=O)c1noc2ncnc(N3CCN(c4cccc(C(F)(F)F)c4)CC3)c12 | ? | - | 0 | 0 | 0 | 0
CN(Cc1ccccc1)C(=O)c1ccc2c(c1)N(Cc1ccc(Cl)cc1)C(=O)c1ccccc1S2=O (stereo not given) | 21µM | - | 0 | 0 | 0 | 0
CCN1C(=O)c2ccccc2S(=O)c2ccc(C(=O)N3CCN(c4cccc(C)c4)C(C)C3)cc21 (stereo not given) | 16µM | - | ? | 0 | 0 | 0
CCOC(=O)N1CCN(C(=O)c2ccc3c(c2)N(Cc2cccc(Cl)c2)C(=O)c2ccccc2S3=O)CC1 (stereo not given) | 21µM | 0 | 0 | 0 | ? | 0
CC(=O)OCC(NC(=O)C(COCc1ccccc1)NC(=O)OC(C)(C)C)C1OC(n2cc(C)c(=O)[nH]c2=O)C(OC(C)=O)C1OC(C)=O (stereo not given) | 0 | - | - | - | 0 | -
CCOC(=O)CN(Cc1ccccc1)C(C(=O)NC1CCCCC1)c1ccccc1 (stereo not given) | 4.6µM | - | ? | 0 | 12µM | 0
Cc1ccc(C(C(=O)NC2CCCCC2)N(C)Cc2ccccc2)cc1 (stereo not given) | 0[9.27 µM] | - | 0 | 0 | 0 | 0
COc1ccc(C=NNC(=S)NN=Cc2ccc(OC)c(OC)c2)cc1OC | 15µM | - | - | - | 0 | 0
COc1ccc(C=NNC(=S)Nc2ccc(F)cc2)cc1OC | ? | - | - | - | 0 | 0
Cc1cc(C)nc(SCc2ccc(C(=O)N/N=C/c3cccc(O)c3O)cc2)n1 | ? | ? | 0 | 0 | 0 | 0
COc1ccc(/C=N/NC(=O)c2ccc(CSc3nc(C)cc(C)n3)cc2)c(OC)c1OC | 0 | 0 | 0 | 0 | 0 | 0
COc1ccc(O)c(/C=N/NC(=O)c2ccc(CSc3nc(C)cc(C)n3)cc2)c1 | 9.2µM | 0 | 0 | 0 | 0 | 0
COc1ccc(/C=N/NC(=O)c2ccc(CSc3nc(C)cc(C)n3)cc2)cc1O | 21µM | 0 | 0 | 0 | 0 | 0
SMILES | Nrf2 inh | p53 reactivator | miR-21 reporter | ClpP mod | A549 tox | Nrf2 activator
O=C(NCCCN1CCN(c2ccc(F)cc2)CC1)c1cc2c(Cl)nc3ccccc3c2s1 | 0 | - | 0 | 0 | 0 | 0
O=C(CSc1nc(-c2ccc(F)cc2)[nH]c1-c1ccc(F)cc1)Nc1ccc2c(c1)OCCO2 | ? | - | ? | 0 | ? | 0
COc1ccc(-c2nc(SCC(=O)NC3CCCC3)c(-c3ccc(F)cc3)[nH]2)cc1 | 16µM | - | 0 | 0 | 0 | 0
O=C(CSc1nc(-c2ccc(F)cc2)[nH]c1-c1ccc(F)cc1)Nc1ccc2c(c1)OCO2 | 16µM | - | ? | 0 | ? | 0
COc1ccc(-c2[nH]c(-c3ccc(F)cc3)nc2SCC(=O)NC2CCCC2)cc1 | ? | 0 | 0 | 0 | 0 | 0
COc1ccc(-c2[nH]c(-c3ccccc3)nc2SCC(=O)NC2CCCC2)cc1 | 0 | 0 | 0 | 22µM! | 0 | 0
COc1ccc(-c2[nH]c(-c3cccc(OC)c3)nc2SCC(=O)NC2CCCC2)cc1 | 0 | 0 | ? | 25µM! | 0 | 0
O=S(=O)(c1ccccc1)c1nnn2c1nc(NCc1ccc(F)cc1)c1sccc12 | 0 | - | 0 | 0 | 0 | 0
Cc1nnc(NC(=O)CSc2cn(CCNC(=O)c3ccccc3)c3ccccc23)s1 | 0 | 0 | 0 | 0 | 0 | 0
COc1ccc(C(=O)NCCn2cc(SCC(=O)Nc3nnc(C)s3)c3ccccc32)cc1 | 10µM | - | - | 0 | 0[1.84 µM] | 0
CCc1ccc(CNc2ccc(N3CCN(C(C)=O)CC3)cc2)cc1 | 16µM | 0 | 0 | 0 | ? | 0
COc1ccccc1NC(=O)CSc1ccc(-c2cccs2)nn1 | ? | 0 | 0 | - | 0 | 0
COC(=O)c1ccc(NC(=O)CSc2ccc(-c3cccs3)nn2)cc1 | 0 | - | 0 | 0 | 0 | 0
O=C(CSc1ccc(-c2cccs2)nn1)Nc1ccccc1 | 18µM | 0 | 0 | 0 | 0 | 0
Cc1cc(C)cc(NC(=O)CSc2ccc(-c3cccs3)nn2)c1 | 10µM | 0 | 0 | 0 | 0 | 0
CSCCC(NS(=O)(=O)c1ccc2c(c1)oc(=O)n2C)C(=O)N1CCN(c2cccc(Cl)c2)CC1 (stereo not given) | - | - | 0 | 0 | 0 | 0
Cc1ccc(-n2nc(CO)c(C(=O)NC(C)CCCc3ccccc3)n2)cc1C (stereo not given) | 0 | - | 0 | 35µM | 0 | 0
O=C(NCCCc1ccccc1)c1nn(-c2ccccc2)nc1CO | 0 | - | 0 | 0 | 0 | 0
CCc1ccc(-n2nc(CO)c(C(=O)NCCCc3ccccc3)n2)cc1 | 0 | - | 0 | 28µM | 0 | 0
CCc1ccc(-n2nc(CO)c(C(=O)NC)n2)cc1 | 0 | - | 0 | 14µM | 0 | 0
CCc1ccc(-n2nc(CO)c(C(=O)NCC(c3ccccc3)c3ccccc3)n2)cc1 | 0 | - | 0 | ? | 0 | 0
Cc1ccc(-n2nc(CO)c(C(=O)NC(C)c3ccccc3)n2)cc1C (stereo not given) | ? | - | 0 | 35µM | 0 | 0
O=C(O)c1ccccc1C=NNc1ccccn1 | 0 | - | - | 0 | 0 | 0
